Screening results: PubChem, several laboratories
PGC1a acetyl inh = lowers PGC1a acetylation signal in U2OS cells | AlphaScreen anti-acetyl-lysine; with virally co-expressed GCN5 acetyltransferase | 350,000 compounds, 0.17% hits | inhibition, % at 15.6 µM;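 active = every replicate shows inhibition of at least 40%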;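 also: 0% = neutral control wells and 100% = positive control wells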
FN deposit inh = fibronectin deposition inhibition; AH1F fibroblasts, Alexa488-fibronectin deposition fluorescence, overnight; inhibition, % at 12.6 µM; 350,000 compounds, 0.086% hits;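 active = mean inhibition across replicates of 30% or more, regardless of how many single replicates reach that level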;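 also: positive control wells lacked labelled fibronectin entirely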
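Schedule: 1 h cell adhesion before compound, then overnight fibronectin incubation; test system: AH1F fibroblast monolayer depositing Alexa488-labelled fibronectin into matrix; quantity: 10000 AH1F cells per well; probe or stimulus: fluorescent fibronectin at 24 nM final; signal: fluorescence, ex 485 nm, em 525 nm; evaluation: percent inhibition as loss of matrix-bound fibronectin fluorescence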
C2C12 statin = suppressors of simvastatin-induced myotoxicity in C2C12 myotubes; ATP luminescence, 48 h; scaled: DMSO 0, geranylgeraniol control 100; rescue of ATP level, % at 7.49 µM; 330,000 compounds, 0.78% hits; AID 602340;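 active = mean ATP rescue above about 67%, or every replicate alone reaching that limit, limit read from the data, passing the limit was not always enough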;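 also: myotubes were challenged with 10 µM simvastatin during compound exposure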
hiPSC survival = enhancers of human iPSC single-cell survival; hiPSC single-cell survival, ATPlite luminescence; 100% = ROCK inhibitor wells, 0% = DMSO; survival enhancement, % at 20 µM; 360,000 compounds, 0.044% hits; AID 602274; in the data active = survival enhancement above about 18%;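 also: cells exposed to compounds for 16 hours before the ATP read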
Yeast UUG start = modulators of start codon recognition fidelity in yeast; S. cerevisiae UUG-firefly luciferase reporter, luminescence/redox ratio; activity score, % at 18.7 µM; hit rate 0.13% among 350,000; AID 602363;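 active = replicate mean at a twofold rise or more, about +100% in these data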;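 note: firefly luciferase made from a UUG start codon reports start codon fidelity; reporter light over untreated wells divided by growth signal over untreated wells; some hits fall short of that in this replicate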
* hit, by the source's call; x = no result; ! = not active in a repeat. In the library only some 0.91% were active in any assay of this set; here they are far more common.

The opening 2 entries (preview)
Short forms: A = PGC1a acetyl inh; B = FN deposit inh; C = C2C12 statin; D = hiPSC survival; E = Yeast UUG start
CSc1nsc(SCC(=O)NC2CCCCC2)n1
  A = 3.9	B = x	C = 68.9*	D = -0.1	E = -8.0

C[C@H](CO)N1C[C@H](C)[C@H](CN(C)S(=O)(=O)c2ccc(Cl)cc2)Oc2ccc(NC(=O)CCCN(C)C)cc2C1=O
  A = 6.6	B = x	C = -3.0	D = x	E = 35.7

The listing, from the start:
Short forms: A = PGC1a acetyl inh; B = FN deposit inh; C = C2C12 statin; D = hiPSC survival; E = Yeast UUG start
CSc1nsc(SCC(=O)NC2CCCCC2)n1
  A = 3.9	B = x	C = 68.9*	D = -0.1	E = -8.0

C[C@H](CO)N1C[C@H](C)[C@H](CN(C)S(=O)(=O)c2ccc(Cl)cc2)Oc2ccc(NC(=O)CCCN(C)C)cc2C1=O
  A = 6.6	B = x	C = -3.0	D = x	E = 35.7

Cc1ccc(OCC(O)CNC(=O)c2ccccc2C(=O)O)cc1 (stereo unspecified)
  A = -5.1	B = -1.4	C = 104.9*	D = -2.3	E = 3.6

Cc1cccc(OCC(O)CNC(=O)c2ccccc2C(=O)O)c1 (stereo unspecified)
  A = 12.4	B = x	C = 0.0	D = -1.6	E = -5.2

Clc1ccccc1CN1CCSCC1
  A = 47.1*	B = 2.7	C = 3.8	D = 1.2	E = -4.4

Clc1ccccc1CN1CCN(c2ncccn2)CC1
  A = -1.5	B = 0.7	C = -18.7	D = 0.1	E = -0.3

COC(=O)c1cccc(-n2nnnc2SCC(=O)Nc2cc(C)on2)c1
  A = -8.6	B = x	C = 61.1	D = 1.6	E = -0.6

CC(=O)c1cccc(-n2nnnc2SCC(=O)NNC(=O)C(C)C)c1
  A = 84.7*	B = 10.9	C = 4.6	D = 1.1	E = -13.7

COC(=O)C[C@H]1C[C@@H]2c3cc(NC(=O)NC4CCCC4)ccc3O[C@@H]2[C@H](CO)O1
  A = 2.4	B = 0.8	C = -2.3	D = x	E = x

COc1cccc(C2C(C#N)=C(N)Oc3cc(C)n(Cc4ccco4)c(=O)c32)c1 (stereo unspecified)
  A = -3.8	B = x	C = 142.3*	D = 4.9	E = -12.3

CC(C)CC1Nc2ncnc(N3CCN(c4ccccc4)CC3)c2N(Cc2ccccc2)C1=O (stereo unspecified)
  A = -12.8	B = -10.8	C = -0.6	D = 22.6*!	E = -18.3

O=C1CCC([N+](=O)[O-])C(c2ccc(Cl)cc2Cl)N1 (stereo unspecified)
  A = 3.7	B = x	C = 70.2*	D = -0.2	E = -9.6

O=C1CC(c2ccccc2)=Nc2ccccc2N1Cc1ccccc1
  A = x	B = 5.9	C = x	D = 0.4	E = x

COc1ccc2c(c1)N(C)C(=O)CC(c1ccccc1)=N2
  A = -1.8	B = x	C = 107.7*	D = -2.7	E = -13.8

CC1=CCC2C(=O)N(c3cccc(C(=O)NCc4ccccc4)c3)C(=O)C2C1 (stereo unspecified)
  A = 63.2*	B = -2.7	C = 5.8	D = -0.1	E = -1.4

C[C@@H]1CN([C@@H](C)CO)C(=O)c2cc(C#CC3CCCCC3)cnc2O[C@@H]1CN(C)C(=O)NC1CCCC1
  A = -4.7	B = -20.1	C = -35.7	D = x	E = 21.1

Nn1c(SCC(=O)NCCC2=CCCCC2)nnc1-c1cccnc1
  A = 2.3	B = -4.0	C = 15.0	D = 0.2	E = -17.0

CCN(CC)S(=O)(=O)c1cccc(-c2nnc(SCC(=O)NCCC3=CCCCC3)n2N)c1
  A = -3.5	B = 10.0	C = 124.3*	D = -1.4	E = 2.5

O=C(C[C@@H]1C[C@@H]2c3cc(NC(=O)CC4CC4)ccc3O[C@@H]2[C@H](CO)O1)NCc1ccccn1
  A = -2.8	B = -31.9	C = -7.6	D = x	E = -24.1

O=C(CN1C(=O)CCS(=O)(=O)c2ccccc21)NCc1ccc2c(c1)OCO2
  A = 11.4	B = x	C = 6.9	D = -0.7	E = x

A few values from above.
Entry of Nn1c(SCC(=O)NCCC2=CCCCC2)nnc1-c1cccnc1 under FN deposit inh: -4.0
Entry of CC1=CCC2C(=O)N(c3cccc(C(=O)NCc4ccccc4)c3)C(=O)C2C1 (stereo unspecified) under Yeast UUG start: -1.4
Entry of C[C@@H]1CN([C@@H](C)CO)C(=O)c2cc(C#CC3CCCCC3)cnc2O[C@@H]1CN(C)C(=O)NC1CCCC1 under FN deposit inh: -20.1
Entry of O=C(CN1C(=O)CCS(=O)(=O)c2ccccc21)NCc1ccc2c(c1)OCO2 under PGC1a acetyl inh: 11.4

Further compounds follow:
Short forms: A = PGC1a acetyl inh; B = FN deposit inh; C = C2C12 statin; D = hiPSC survival; E = Yeast UUG start
O=C(CN1C(=O)CCS(=O)(=O)c2ccccc21)NCc1ccccc1
  A = -0.4	B = x	C = 72.2*	D = 3.0	E = -10.7

C[C@H]1CN([C@@H](C)CO)C(=O)c2cc(NC(=O)c3ccncc3)ccc2O[C@@H]1CN(C)S(=O)(=O)c1cccs1
  A = 1.7	B = -8.0	C = 55.1	D = x	E = -8.2

COc1ccc(S(=O)(=O)N2CCCC2)cc1Br
  A = -2.4	B = 3.3	C = 6.1	D = -0.5	E = 0.2

COc1ccc(S(=O)(=O)N2CCCCC2)cc1C(C)C
  A = -3.2	B = x	C = 112.8*	D = 11.3	E = 2.4

CCCCN1C(=O)NC(NC(C)=O)(C(F)(F)F)C1=O (stereo unspecified)
  A = 3.0	B = x	C = 105.4*	D = -1.6	E = -6.7

CN1c2ccc(C#Cc3cccnc3)cc2[C@H]2[C@H](CCN2C(=O)C2CCCC2)[C@@H]1CO
  A = x	B = 7.0	C = x	D = x	E = x

CC(C)(CO)N=Cc1c(O)[nH]c2ccccc12
  A = 11.6	B = x	C = 4.9	D = -4.2	E = 7.6

CC(C)N=Cc1c(O)[nH]c2ccccc12
  A = -69.4	B = -5.1	C = 82.9*	D = -2.6	E = -1.3

O=C(C[C@H]1CC[C@H]2[C@@H](COC[C@H](O)CN2Cc2ccc(F)cc2)O1)NCc1ccccc1Cl
  A = -3.3	B = 0.4	C = -7.2	D = x	E = -4.9

C[C@@H]1CN([C@@H](C)CO)C(=O)c2ccccc2-c2ccccc2CO[C@H]1CN(C)S(=O)(=O)c1cccc(F)c1
  A = 3.1	B = 3.8	C = x	D = x	E = x

COC(=O)C1=CN(Cc2ccc(F)cc2)C=C(C(=O)OC)C1c1ccc(O)c(OC)c1
  A = x	B = -2.9	C = 20.3	D = 0.0	E = 6.6

COC(=O)C1=CN(Cc2ccc(OC)c(OC)c2)C=C(C(=O)OC)C1c1cccc(O)c1
  A = 74.2*	B = -5.3	C = 16.8	D = -0.7	E = -12.7

COc1cccc(CN2[C@@H]3CNC[C@H]2C3c2ccc(-c3cccc(OC)c3)cc2)c1 (stereo partly specified)
  A = 0.2	B = -8.7	C = x	D = x	E = x

Cc1ccc(C(c2nnnn2C(C)(C)C)N2CCC(C)CC2)cc1 (stereo unspecified)
  A = -8.9	B = 3.0	C = -7.6	D = 1.9	E = -18.2

CC1CCN(C(c2ccccc2)c2nnnn2C(C)(C)C)CC1 (stereo unspecified)
  A = -27.9	B = x	C = 105.7*	D = -0.2	E = -13.0

C[C@@H]1CCCCO[C@H](CN(C)C(=O)Nc2ccccc2)[C@@H](C)CN([C@H](C)CO)C(=O)c2cc(NC(=O)Nc3ccc(F)cc3)ccc2O1
  A = 19.3	B = x	C = x	D = x	E = -7.9

CC(=O)c1cc(F)c(N2CCCC2)cc1C
  A = -6.5	B = x	C = 100.9*	D = -2.2	E = -7.5

CO[C@H]1CN(C)C(=O)c2cc(NC(=O)Cc3ccccc3)ccc2OC[C@H](C)N(C(C)=O)C[C@@H]1C
  A = -12.0	B = 27.2	C = -9.7	D = x	E = x

O=C(c1ccc(Cl)cc1)N1CCCC(c2ccccc2)=N1
  A = -0.5	B = x	C = 79.8*	D = 4.6	E = 7.2

CC1(O)CC(c2ccc(Cl)cc2)=NN1C(=O)c1ccc(Cl)cc1 (stereo unspecified)
  A = 13.6	B = -4.9	C = -5.2	D = 0.0	E = 5.8

CSc1nnc(-c2ccccc2)c(=O)[nH]1
  A = 10.6	B = x	C = 96.7*	D = 0.2	E = -23.8

Cc1cccc(C)c1NC(=O)c1nc(S(=O)(=O)Cc2ccccc2)ncc1Cl
  A = x	B = 4.1	C = 134.7*	D = -0.2	E = -9.9

CS(=O)(=O)c1ncc(Cl)c(C(=O)Nc2ccc(OC(F)F)cc2)n1
  A = x	B = x	C = 117.0*	D = 0.0	E = -7.9

Cc1cccc(CS(=O)(=O)c2ncc(Cl)c(C(=O)Nc3c(C)cccc3C)n2)c1
  A = x	B = 12.4	C = 32.9	D = -0.3	E = -21.6

CCN(c1ccccc1)S(=O)(=O)c1ccc(NC(=O)c2nc(S(C)(=O)=O)ncc2Cl)cc1
  A = x	B = x	C = -526.4	D = 9.4	E = 6.1

Cc1ccccc1CS(=O)(=O)c1ncc(Cl)c(C(=O)Nc2ccc(F)cc2)n1
  A = x	B = 39.5*	C = -47.5	D = 3.1	E = -16.4

CCS(=O)(=O)c1ncc(Cl)c(C(=O)Nc2ccc(S(=O)(=O)N(C)c3ccccc3)cc2)n1
  A = x	B = 67.3*	C = -657.2	D = 21.2*	E = -3.8

COc1ccc(OC)c(NC(=O)c2nc(S(=O)(=O)Cc3ccccc3)ncc2Cl)c1
  A = 0.9	B = 56.0*	C = -58.2	D = 1.2	E = -16.4

COc1ccc(NC(=O)c2nc(S(=O)(=O)Cc3cccc(C)c3)ncc2Cl)c(OC)c1
  A = -5.0	B = 47.5*	C = 31.0	D = 6.6	E = 4.0

O=C(C[C@@H]1CC[C@@H]2[C@H](COC[C@@H](O)CN2C(=O)Nc2cccc(Cl)c2)O1)NCc1ccccc1F
  A = 8.1	B = -0.2	C = -17.8	D = x	E = 13.7
